The source of these data is patent US7268128B2, “1,3,5-trisubstituted-5-phenyl and 5-pyridyl pyrazolopyrimidinone derivatives having PDE7 inhibiting action” (Ausbio Pharma Co., Ltd., priority 2001, dated 2007).

Protein sequences, listed by entry. Tags and fused reporters are not part of them. Lines headed by an entry give the natural chain unless they say otherwise; changes in a name come on top.
UniProt Q13946: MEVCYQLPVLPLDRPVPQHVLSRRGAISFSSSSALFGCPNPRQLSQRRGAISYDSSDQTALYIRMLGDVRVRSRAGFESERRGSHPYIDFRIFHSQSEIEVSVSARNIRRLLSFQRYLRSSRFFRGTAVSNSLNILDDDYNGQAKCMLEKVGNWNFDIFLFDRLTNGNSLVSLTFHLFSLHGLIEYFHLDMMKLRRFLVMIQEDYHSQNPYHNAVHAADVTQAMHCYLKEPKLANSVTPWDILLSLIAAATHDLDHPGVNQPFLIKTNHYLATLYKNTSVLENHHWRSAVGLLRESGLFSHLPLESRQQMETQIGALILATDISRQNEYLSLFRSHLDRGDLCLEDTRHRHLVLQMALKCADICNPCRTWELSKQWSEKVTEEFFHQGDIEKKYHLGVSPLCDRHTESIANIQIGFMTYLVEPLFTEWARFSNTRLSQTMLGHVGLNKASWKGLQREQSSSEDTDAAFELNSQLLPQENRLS

The structures appear in SMILES notation. pIC50: −log10 of the molar value.

This experiment concerns the target T1, PDE7 (type VII phosphodiesterase) (Homo sapiens, UniProt Q13946).
T1 construct: endogenous in cells; host or cells: MOLT-4 (ATCC CRL-1582), soluble fraction, HiTrapQ anion-exchange fraction
Briefly: PDE7 inhibiting activity (3H-cAMP hydrolysis, active fraction from MOLT-4 cells). As to conditions: PDE7 fraction from MOLT-4 cells, 0.064 μM cAMP, 10 μM rolipram present, 2 hours at 25° C.; read-out: IC50 values for phosphodiesterase inhibiting activities (PDE7). It counts as biochemical. As to the method:
To evaluate the compounds of the present invention for the ability to suppress PDE7 (type VII phosphodiesterase), the method of Biochemical Pharmacol. 48(6), 1219-1223 (1994) was partially modified to perform the following assay:
1) PDE7 (type VII phosphodiesterase) active fraction was obtained. That is, human acute lymphoblastoid lymphoma T cell strain MOLT-4 (purchasable from ATCC under ATCC No. CRL-1582) was cultured in RPMI1640 medium containing 10% fetal bovine serum to obtain 5×10^8 MOLT4 cells. The cells were harvested by centrifugation, and suspended in 10 ml of buffer A (25 mM tris-HCl, 5 mM 2-mercaptoethanol, 2 mM benzamidine, 2 mM EDTA, 0.1 mM 4-(2-aminoethyl)benzenesulfonyl hydrochloride, pH 7=7.5). The cells were homogenized in a Polytoron homogenizer, and centrifuged (4° C., 25,000 G, 10 min). The supernatant was further ultracentrifuged (4° C., 100,000 G, 60 min), and the resulting supernatant was filtered through a 0.2 μm filter to obtain a soluble fraction. […]
3) The test compounds at desired concentrations were each reacted for 2 hours at 25° C. in a reactant mixture containing 20 mM tris-HCl (pH 7.5), 1 mM MgCl2, 100 μM EDTA, 330 μg/ml bovine serum albumin, 4 μg/ml 5′-nucleotidase, 0.1 μCi^3H-cAMP (0.064 μM cAMP), 10 μM rolipram, and the type VII phosphodiesterase stored solution. […] Then, the resulting supernatant was measure for radioactivity. […]

Consider `COc1cc(N)ccc1-c1nc2c(C)nn(C3CCCCC3)c2c(=O)[nH]1` [Example 9, 5-(4-Amino-2-methoxyphenyl)-1-cyclohexyl-3-methyl-1,6-dihydro-7H-pyrazolo[4,3-d]pyrimidin-7-one], for which the pIC50 (in general, the negative decadic logarithm of the IC50, by convention in mol/L) is at least 6.00.
